# Assay results as given in publication PMC11323223 (Bioorganic chemistry, 2022).
# Chains of the proteins cited; added tags and fusions are not shown. Lines headed by an entry give the natural chain unless they say otherwise; changes in a name come on top.
# UniProt P05413, whole entry: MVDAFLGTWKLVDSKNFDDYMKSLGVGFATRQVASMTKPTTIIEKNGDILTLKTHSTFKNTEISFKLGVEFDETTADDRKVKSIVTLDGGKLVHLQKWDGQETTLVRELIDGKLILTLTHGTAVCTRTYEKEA
# UniProt O15540: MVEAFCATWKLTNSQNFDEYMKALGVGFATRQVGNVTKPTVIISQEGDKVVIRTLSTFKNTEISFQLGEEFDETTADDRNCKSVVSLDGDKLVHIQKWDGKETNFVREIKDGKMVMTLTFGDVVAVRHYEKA
# How the values were obtained:
# FABP3 = FABP3 (Homo sapiens, UniProt P05413); assay: Fluorescence displacement binding assay; details: read-out: FABP3 Ki; average ± S.E. of at least three independent experiments
# FABP7 = FABP7 (Homo sapiens, UniProt O15540); assay: Fluorescence displacement binding assay; details: read-out: FABP7 Ki; average ± S.E. of at least three independent experiments
substance,measurement,setting,value
"ε-3-(4′-Fluoro-1,1′-biphenyl-3-ylcarbonyl)-2,4-diphenylcyclobutane-1-carboxylic acid [ε-204]",Ki,FABP3,15.5 ± 1.91 µM
same,Ki,FABP7,2.19 ± 0.04 µM
